The source of these data is patent US20180245048A1, “METHODS AND COMPOSITIONS FOR EXPANSION AND DIFFERENTIATION OF SKELETAL MUSCLE STEM CELLS OR PROGENITOR CELLS” (AGENCY FOR SCIENCE, TECHNOLOGY AND RESEARCH, priority 2015, published 2018).

In the test the test system is induced pluripotent stem cell-derived myoblasts. Put plainly: PAX7 mRNA expression in induced pluripotent stem cell-derived myoblasts. The class given is cell-based, human. The conditions noted are these: 20 ng/ml bFGF, 3 μM CHIR99021, 2.5 μg/ml DLL1, alone or combined; vs untreated control (FIG. 1).

B1: DLL1: Delta-like protein 1, Notch agonist (protein, UniProt O00548 18-723, looked up)
Delta-like protein 1: QVWSSGVFELKLQEFVNKKGLLGNRNCCRGGAGPPPCACRTFFRVCLKHYQASVSPEPPCTYGSAVTPVLGVDSFSLPDGGGADSAFSNPIRFPFGFTWPGTFSLIIEALHTDSPDDLATENPERLISRLATQRHLTVGEEWSQDLHSSGRTDLKYSYRFVCDEHYYGEGCSVFCRPRDDAFGHFTCGERGEKVCNPGWKGPYCTEPICLPGCDEQHGFCDKPGECKCRVGWQGRYCDECIRYPGCLHGTCQQPWQCNCQEGWGGLFCNQDLNYCTHHKPCKNGATCTNTGQGSYTCSCRPGYTGATCELGIDECDPSPCKNGGSCTDLENSYSCTCPPGFYGKICELSAMTCADGPCFNGGRCSDSPDGGYSCRCPVGYSGFNCEKKIDYCSSSPCSNGAKCVDLGDAYLCRCQAGFSGRHCDDNVDDCASSPCANGGTCRDGVNDFSCTCPPGYTGRNCSAPVSRCEHAPCHNGATCHERGHRYVCECARGYGGPNCQFLLPELPPGPAVVDLTEKLEGQGGPFPWVAVCAGVILVLMLLLGCAAVVVCVRLRLQKHRPPADPCRGETETMNNLANCQREKDISVSIIGATQIKNTNKKADFHGDHSADKNGFKARYPAVDYNLVQDLKGDDTAVRDAHSKRDTKCQPQGSSGEEKGTPTTLRGGEASERKRPDSGCSTSKDTKYQSVYVISEEKDECVIATEV
In the case of B1, the “PAX7 mRNA expression” value is listed as “increase in PAX7 expression”.
